In ChEMBL document CHEMBL5506068 (J Med Chem, 2024):

Species on record: Mus musculus
Assay: Selectivity ratio of Kd for mouse MOR to Kd for mouse KOR

Cl.O=C(/C=C/c1ccco1)N[C@H]1CC[C@@]2(O)[C@H]3Cc4ccc(O)c5c4[C@@]2(CCN3CC2CC2)[C@H]1O5
Ratio: 0
